# Like-named read-outs stand apart in the source and are kept apart here.
# Settings: for shelf-life stability of 300 ppm silver citrate: FIG. 5, 1 to 4 weeks
substance,measurement,setting,value
silver citrate,shelf-life stability,"1.0% citric acid solution, pH 6.0, FIG. 5, 1, 2, 3 and 4 weeks",not stable at high concentrations
same,shelf-life stability of 300 ppm silver citrate,1.0% citric acid solution,did not remain
same,shelf-life stability of 300 ppm silver citrate,10% citric acid solution,stable

# Reference: patent US7803407B2 (priority 1997, dated 2010)
